Assay results published in US12678474B2, “Screening of fixed-point coupling sites of cysteine-modified antibody-toxin conjugate (TDC)” (SICHUAN BAILI PHARMACEUTICAL CO. LTD., priority 2017, dated 2026).

Legend:
[1] = target: T1, Recombinant EGFRVIII-His*6 antigen (Homo sapiens, DELINS[…]G); assay: ELISA relative affinity for EGFRvIII; type: binding; settings: for EC50: EGFRvIII-coated plates, A450, read-out: EC50 (nM), mutant antibody affinity
T1 construct: His*6
Description: Insertion Mutation Modification and Parent Antibody 2A1 for EGFRvIII • ELISA was used to compare the relative affinities of 2A1-LC-Cys110ins-mc-vc-PAB-MMAE TDC, 2A1-LC-Cys111ins-mc-vc-PAB-MMAE TDC, 2A1-LC-Cys142ins-mc-vc-PAB-MMAE TDC, 2A1-HC-Cys254ins-mc-vc-PAB-MMAE TDC, 2A1-HC-Cys255ins-mc-vc-PAB-MMAE TDC, 2A1-HC-Cys258ins-mc-vc-PAB-MMAE TDC, 2A1-HC-Cys259ins-mc-vc-PAB-MMAE TDC, 2A1-HC-Cys354ins-mc-vc-PAB-MMAE TDC, 2A1-HC-Cys355ins-mc-vc-PAB-MMAE TDC, 2A1-HC-Cys357ins-mc-vc-PAB-MMAE TDC, 2A1-HC-Cys378ins-mc-vc-PAB-MMAE TDC, 2A1-HC-Cys379ins-mc-vc-PAB-MMAE TDC, 2A1-HC-Cys386ins-mc-vc-PAB-MMAE TDC, 2A1-HC-Cys387ins-mc-vc-PAB-MMAE TDC, 2A1-HC-Cys410ins-mc-vc-PAB-MMAE TDC, and 2A1 for EGFRvIII. The specific process used was as follows:
Recombinant […]-His*6 antigen was used to coat plates; fish skin gelatin was used as a seal; dilution of each insertion mutant antibody was performed separately, up to a maximum concentration 10 μg/ml and a 4-fold gradient dilution was performed for a total of 11 concentrations; HRP-labeled secondary antibodies were used for incubation; TMB was used for development and absorption detection was performed at 450 nm.

[2] = system: EGFRwt-overexpressing human skin squamous cell carcinoma cell line A431; assay: MTS cytotoxicity (cell viability) assay, A431; type: cell-based; settings: antibodies; 72 hours
Procedure: (§1) TDC cytotoxic activity was determined via the following experimental procedure: TDC was added to EGFR-overexpressing or […]-expressing human tumor cell culture medium, and cell viability was determined after 72 hours of cell culture. Cell-based in vitro experiments were used to determine cell viability, cytotoxicity and programmed cell death induced by TDC constituted by the present invention.
(§2) In vitro efficacy of antibody-toxin conjugates was determined via a cell proliferation assay. A CellTiter ^96® AqueousOne Solution Cell was Proliferation Assay purchased commercially from Promega Corp. (Madison, WI). CellTiter ^96® Aqueous One Solution Cell Proliferation Assay (a) is a colorimetric method used to detect the number of living cells in cell proliferation and cytotoxicity experiments. The above reagent contains the novel tetrazole compound [3-(4,5-dimethylthiazol-2-yl)-5-(3-carboxymethoxyphenyl)-2-(4-sulfophenyl)-2H-tetrazolium, inner salt; MTS) as well as an electronic coupling agent (phenazine ethosulfate; PES). […] This convenient “single solution” model is an improvement on the first generation of the CellTiter ^96® Aqueous Assay, in which the electronic coupling agent PMS was supplied separately from the MTS solution. MTS (Owen's reagent) is reduced by cellular organisms into a colored formazan product, which can be directly dissolved in culture medium (FIG. 1). This conversion is likely facilitated by NADPH NADH produced by dehydrogenase present in metabolically active cells. For the assay, a small amount of CellTiter ^96® Aqueous One Solution Reagent is added directly to the medium present in the wells of the culture plate, after which incubation is performed for 1 to 4 hours, followed by reading of the absorbance value at 490 nm using a microplate reader.
(§3) The amount of formazan product detected at 490 nm is proportional to the number of viable cells in culture. Because the formazan product of MTS is soluble in tissue culture medium, CellTiter ^96® Aqueous One Solution Assay requires fewer steps than the MTT or INT methods. A431 (EGFR-overexpressing cells) and U87-[…] […]

[3] = system: EFGRvIII-overexpressing human glioma cell line U87-EGFRvIII; assay: MTS cytotoxicity (cell viability) assay, U87-EGFRvIII; type: cell-based; settings: antibodies; 72 hours; read-out: IC50, U87MG-EGFRvIII (MTS)
Procedure: as §1, §2, §3

Molecule	Affinity for EGFRvIII relative to 2A1 (in words) [1]	EC50 [1]	IC50 [2]	IC50 [3]
2A1-LC-Cys110ins: 2A1 antibody with cysteine inserted at light chain position 110 (SEQ ID NO: 16) (antibody) heavy: DVQLQESGPSLVKPSQSLSLTCTVTGYSITSDFAWNWIRQFPGNKLEWMGYISYSGNTRYNPSLKSRISITRDTSKNQFFLQLNSVTIEDTATYYCVTAGRGFPYWGQGTLVTVSAASTKGPSVFPLAPSSKSTSGGTAALGCLVKDYFPEPVTVSWNSGALTSGVHTFPAVLQSSGLYSLSSVVTVPSSSLGTQTYICNVNHKPSNTKVDKRV[human IgG1 Fc not spelt out] light: DILMTQSPSSMSVSLGDTVSITCHSSQDINSNIGWLQQRPGKSFKGLIYHGTNLDDEVPSRFSGSGSGADYSLTISSLESEDFADYYCVQYAQFPWTFGGGTKLEIKRTCVAAPSVFIFPPSDEQLKSGTASVVCLLNNFYPREAKVQWKVDNALQSGNSQESVTEQDSKDSTYSLSSTLTLSKADYEKHKVYACEVTHQGLSSPVTKSFNRGE	maintained 2A1 affinity	0.0404 nM	> 10 µM	> 10 µM
2A1-LC-Cys111ins: 2A1 antibody with cysteine inserted at light chain position 111 (SEQ ID NO: 18) (antibody) heavy: DVQLQESGPSLVKPSQSLSLTCTVTGYSITSDFAWNWIRQFPGNKLEWMGYISYSGNTRYNPSLKSRISITRDTSKNQFFLQLNSVTIEDTATYYCVTAGRGFPYWGQGTLVTVSAASTKGPSVFPLAPSSKSTSGGTAALGCLVKDYFPEPVTVSWNSGALTSGVHTFPAVLQSSGLYSLSSVVTVPSSSLGTQTYICNVNHKPSNTKVDKRV[human IgG1 Fc not spelt out] light: DILMTQSPSSMSVSLGDTVSITCHSSQDINSNIGWLQQRPGKSFKGLIYHGTNLDDEVPSRFSGSGSGADYSLTISSLESEDFADYYCVQYAQFPWTFGGGTKLEIKRTVCAAPSVFIFPPSDEQLKSGTASVVCLLNNFYPREAKVQWKVDNALQSGNSQESVTEQDSKDSTYSLSSTLTLSKADYEKHKVYACEVTHQGLSSPVTKSFNRGEC	maintained 2A1 affinity	0.0467 nM	> 10 µM	> 10 µM
2A1-LC-Cys142ins: 2A1 antibody with cysteine inserted at light chain position 142 (SEQ ID NO: 20) (antibody) heavy: DVQLQESGPSLVKPSQSLSLTCTVTGYSITSDFAWNWIRQFPGNKLEWMGYISYSGNTRYNPSLKSRISITRDTSKNQFFLQLNSVTIEDTATYYCVTAGRGFPYWGQGTLVTVSAASTKGPSVFPLAPSSKSTSGGTAALGCLVKDYFPEPVTVSWNSGALTSGVHTFPAVLQSSGLYSLSSVVTVPSSSLGTQTYICNVNHKPSNTKVDKRV[human IgG1 Fc not spelt out] light: DILMTQSPSSMSVSLGDTVSITCHSSQDINSNIGWLQQRPGKSFKGLIYHGTNLDDEVPSRFSGSGSGADYSLTISSLESEDFADYYCVQYAQFPWTFGGGTKLEIKRTVAAPSVFIFPPSDEQLKSGTASVVCLLNNFYPCREAKVQWKVDNALQSGNSQESVTEQDSKDSTYSLSSTLTLSKADYEKHKVYACEVTHQGLSSPVTKSFNRGEC	maintained 2A1 affinity	0.0498 nM	> 10 µM	> 10 µM
